The values that follow come from publication PMC4358367, “Structural basis of diverse membrane target recognitions by ankyrins” (eLife, 2014).

Sequences of proteins named here, by UniProt entry; tags and fusion partners are left off. Residues count along the entry.
UniProt Q01484, 28-873: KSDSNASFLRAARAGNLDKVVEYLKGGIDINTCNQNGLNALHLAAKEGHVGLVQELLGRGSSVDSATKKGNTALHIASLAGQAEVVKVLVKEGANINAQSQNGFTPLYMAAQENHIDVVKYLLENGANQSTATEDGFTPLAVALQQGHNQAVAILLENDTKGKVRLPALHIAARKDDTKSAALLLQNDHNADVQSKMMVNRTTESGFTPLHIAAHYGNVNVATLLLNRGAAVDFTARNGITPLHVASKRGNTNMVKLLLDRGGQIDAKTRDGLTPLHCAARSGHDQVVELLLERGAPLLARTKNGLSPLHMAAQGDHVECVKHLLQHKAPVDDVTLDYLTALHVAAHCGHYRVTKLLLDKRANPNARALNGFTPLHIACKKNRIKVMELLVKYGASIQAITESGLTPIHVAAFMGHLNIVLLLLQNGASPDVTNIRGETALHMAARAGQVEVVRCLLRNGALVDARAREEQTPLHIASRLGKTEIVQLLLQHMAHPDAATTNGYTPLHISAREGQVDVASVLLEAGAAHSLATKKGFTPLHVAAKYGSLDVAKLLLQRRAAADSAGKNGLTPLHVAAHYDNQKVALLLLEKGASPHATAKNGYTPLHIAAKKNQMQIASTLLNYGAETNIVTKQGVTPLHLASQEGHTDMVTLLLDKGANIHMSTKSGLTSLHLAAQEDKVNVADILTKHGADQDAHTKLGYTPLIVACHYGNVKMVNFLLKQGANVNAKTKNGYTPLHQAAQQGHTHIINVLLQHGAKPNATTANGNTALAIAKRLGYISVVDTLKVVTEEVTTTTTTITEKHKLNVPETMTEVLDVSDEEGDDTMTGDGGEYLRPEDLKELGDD

The target in the assay is T1, AnkB_repeats WT (Homo sapiens, UniProt Q01484).
T1 construct: thioredoxin-His6 (N); made in house; host or cells: Escherichia coli BL21 (DE3)
In words: Fluorescence polarization binding to AnkB_repeats WT. The following applies: deduced from ANK repeats WT and site mutants. An excerpt:
The coding sequences of AnkB_repeats (residues 28–873) were PCR amplified using the full-length human 220 kDa AnkB as the template. The coding sequences of the AnkR constructs, including AnkR_repeats (residues 42–853), and the full length AnkR C-terminal domain (residues 1529–1907), were PCR amplified from a mouse muscle cDNA library. The coding sequence of AnkG_repeats (residues 38–855) were PCR amplified using the full-length rat 190 kDa AnkG as the template. The fusion construct of AnkR_AS and AnkB_repeats was made by standard two-step PCR with a coding sequence of thrombin recognition residues ‘GSLVPRGS’ as the linker. This construct was used to crystallize and determine the complex structure. The same strategy was used in making other fusion constructs, including the Nav1.2_ABD-C/AnkB_repeats_R1–9 fusion construct containing residues 1103–1129 from mouse Nav1.2 and human AnkB residues 28–318 followed by a capping sequence corresponding to the αB of R24 (residues 814–822) and the AnkR_AS/AnkG_repeats fusion construct. For truncation mutations of ANK repeats constructs, the same capping sequence was added to the appropriate region of the C-terminus of each construct for protein stabilization. […]
Fluorescence assays were performed on a PerkinElmer LS-55 fiuorimeter equipped with an automated polarizer at 25°C. […]

On to `CC[C@H](C)[C@H](NC(=O)[C@H](Cc1ccc(O)cc1)NC(=O)[C@@H]1CCCN1C(=O)[C@H](CCCNC(=N)N)NC(=O)[C@@H](NC(=O)[C@H](CCCCN)NC(=O)[C@H](C)NC(=S)Nc1ccc2c(c1)C(=O)OC21c2ccc(O)cc2Oc2cc(O)ccc21)C(C)C)C(=O)N[C@@H](C)C(=O)N[C@@H](CCC(=O)O)C(=O)NCC(=O)N[C@@H](CCC(=O)O)C(=O)N[C@@H](CO)C(=O)N[C@@H](CC(=O)O)C(=O)N[C@H](C(=O)N[C@@H](CC(=O)O)C(=O)N[C@@H](CO)C(=O)N[C@@H](CC(=O)O)C(=O)N[C@@H](CC(C)C)C(=O)N[C@@H](CS)C(=O)N[C@H](C(=O)O)[C@@H](C)O)[C@@H](C)O` [FITC-KCNQ2 peptide], for which the “ANK repeat sites used for binding” value was “mainly binds to sites 1 and 2”.
